Source: ChEMBL document CHEMBL4610124, “Novel Thienopyrimidine Inhibitors of Leishmania N-Myristoyltransferase with On-Target Activity in Intracellular Amastigotes” (J Med Chem, 2020)

Assay: Selectivity ratio of EC50 for antileishmanial activity against Leishmania donovani MHOM/ET/67/HU3 intracellular amastigotes to IC50 for NMT in Leishmania donovani MHOM/ET/67/HU3 intracellular amastigotes assessed as reduction in protein myristoylation

CN1CCC(N(C)c2nc(N(C)CCC#N)c3ccccc3n2)C1 (stereo unspecified)
selectivity ratio: 5 - 6
